The values that follow come from ChEMBL document CHEMBL4513216, “Probing the Open Global Health Chemical Diversity Library for Multistage-Active Starting Points for Next-Generation Antimalarials” (ACS Infect Dis, 2020).

Some compounds may have been tested in ways that are not shown here.

The subject of the data set is HepG2. Description: Toxicity liver stage against HepG2, at 10uM. Type of data set: cell-based. Details: test concentration 10 uM, cell line HepG2-A16-CD81EGFP. The conditions noted are these: human, hepg2, 10 µM. In a few lines:
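Uninfected HepG2-A16-CD81EGFP cells, 3 × 10^3 per well, 1536-well, plated on prespotted compound at 10 μM final, parasite-free screening media added to match infected plates; puromycin 10 μM positive, DMSO 0.5% negative; run in parallel with 48 h PbLuc assay at 37 °C, 5% CO2; viability by CellTiter-Glo luminescence, normalized to controls.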

As for `CC1(C)CN(C2(CNC(=O)c3c[nH]nn3)CCCCC2)CCO1`, the INHIBITION turned out to be 13.8%.

With `COc1ccccc1NC1CCN(Cc2ccc(Br)cc2)CC1`, the INHIBITION is -156%.

For the compound `COc1ccc(CN2CCC(Nc3ccc(Br)cc3)CC2)cc1OC`, the INHIBITION is -6.72%.

`COc1ccccc1NC1CCN(Cc2scnc2C)CC1`: the INHIBITION was -0.847%.

Regarding `COc1ccc(NC2CCN(CCc3ccccc3)CC2)cc1OC`, the INHIBITION came to 3.88%.

With `NC1(CNC(=O)c2cc3ccccc3[nH]2)CCCCC1`, the INHIBITION amounted to 1.87%.
